{
  "source": "patent US20110045517A1",
  "about": "“Toxic Material Detection Apparatus and Method” (published 2011)",
  "key": {"[1]": {"assay": "Stability of colorimetric reagents in solution"}, "[2]": {"assay": "Stability of the AChE solution (reaction with ATCI and DTNB, absorbance)"}, "[3]": {"settings": "Day 0, New (fresh cold solution)"}, "[4]": {"settings": "Day 1, New (fresh cold solution)"}, "[5]": {"settings": "Day 2, New (fresh cold solution)"}},
  "note": "Values joined by “and” are separate entries in the source; they are usually repeats but may differ in a detail not shown here. Equal entries are not always repeated.",
  "data": [
    {"molecule": "O=C(O)c1cc(SSc2ccc([N+](=O)[O-])c(C(=O)O)c2)ccc1[N+](=O)[O-]", "values": [
      {"measurement": "light and temperature sensitivity in solution", "setting": "[1]", "result": "light- and temperature-sensitive"}
    ]},
    {"molecule": "acetylcholinesterase", "values": [
      {"measurement": "% Difference from day 0", "setting": "[2]; [3]", "result": 0.0, "unit": "%"},
      {"measurement": "Difference absorbance reading, Average", "setting": "[2]; [3]", "result": 0.996},
      {"measurement": "Difference absorbance reading (individual readings)", "setting": "[2]; Day 0, New (fresh cold solution, dilution Jul. 9, 2007)", "result": "0.958 and 1.089 and 0.941"},
      {"measurement": "% Difference from day 0", "setting": "[2]; [4]", "result": "−40.7", "unit": "%"},
      {"measurement": "Difference absorbance reading, Average", "setting": "[2]; [4]", "result": 0.589},
      {"measurement": "Difference absorbance reading (individual readings)", "setting": "[2]; Day 1, New (fresh cold solution, dilution Jul. 9, 2007)", "result": "0.632 and 0.501 and 0.635"},
      {"measurement": "% Difference from day 0", "setting": "[2]; [5]", "result": "−58.5", "unit": "%"},
      {"measurement": "Difference absorbance reading, Average", "setting": "[2]; [5]", "result": 0.411},
      {"measurement": "Difference absorbance reading (individual readings)", "setting": "[2]; Day 2, New (fresh cold solution, dilution Jul. 9, 2007)", "result": "0.423 and 0.407 and 0.402"},
      {"measurement": "% Difference from day 0", "setting": "[2]; Day 5, RT", "result": "−49.9", "unit": "%"},
      {"measurement": "Difference absorbance reading, Average", "setting": "[2]; Day 5, RT", "result": 0.402},
      {"measurement": "Difference absorbance reading (individual readings)", "setting": "[2]; Day 5, RT, dilution Jul. 5, 2007", "result": "0.430 and 0.432 and 0.345"},
      {"measurement": "% Difference from day 0", "setting": "[2]; Day 6, RT", "result": "−53.2", "unit": "%"},
      {"measurement": "Difference absorbance reading, Average", "setting": "[2]; Day 6, RT", "result": 0.369},
      {"measurement": "Difference absorbance reading (individual readings)", "setting": "[2]; Day 6, RT, dilution Jul. 5, 2007", "result": "0.374 and 0.369 and 0.365"},
      {"measurement": "% Difference from day 0 (difference absorbance reading)", "setting": "[2]; Tris buffer, Day 0, Cold", "result": 0.0, "unit": "%"},
      {"measurement": "% Difference from day 0 (initial absorbance reading)", "setting": "[2]; Tris buffer, Day 0, Cold", "result": 0.0, "unit": "%"},
      {"measurement": "Difference absorbance reading, Average", "setting": "[2]; Tris buffer, Day 0, Cold", "result": 0.879},
      {"measurement": "initial absorbance reading (individual readings)", "setting": "[2]; Tris buffer, Day 0, Cold", "result": "0.286 and 0.294 and 0.238"},
      {"measurement": "initial absorbance reading, Average", "setting": "[2]; Tris buffer, Day 0, Cold", "result": 0.273},
      {"measurement": "Difference absorbance reading (individual readings)", "setting": "[2]; Tris buffer, Day 0, Cold, 5 minute minus initial reading", "result": "0.884 and 0.945 and 0.809"},
      {"measurement": "% Difference from day 0 (difference absorbance reading)", "setting": "[2]; Tris buffer, Day 0, RT", "result": 0.0, "unit": "%"},
      {"measurement": "% Difference from day 0 (initial absorbance reading)", "setting": "[2]; Tris buffer, Day 0, RT", "result": 0.0, "unit": "%"},
      {"measurement": "Difference absorbance reading, Average", "setting": "[2]; Tris buffer, Day 0, RT", "result": 0.901},
      {"measurement": "initial absorbance reading (individual readings)", "setting": "[2]; Tris buffer, Day 0, RT", "result": "0.312 and 0.331 and 0.285"},
      {"measurement": "initial absorbance reading, Average", "setting": "[2]; Tris buffer, Day 0, RT", "result": 0.309},
      {"measurement": "Difference absorbance reading (individual readings)", "setting": "[2]; Tris buffer, Day 0, RT, 5 minute minus initial reading", "result": "0.841 and 1.019 and 0.844"},
      {"measurement": "% Difference from day 0 (difference absorbance reading)", "setting": "[2]; Tris buffer, Day 1, Cold", "result": "−38.0", "unit": "%"},
      {"measurement": "% Difference from day 0 (initial absorbance reading)", "setting": "[2]; Tris buffer, Day 1, Cold", "result": "−11.2", "unit": "%"},
      {"measurement": "Difference absorbance reading, Average", "setting": "[2]; Tris buffer, Day 1, Cold", "result": 0.500},
      {"measurement": "initial absorbance reading, Average", "setting": "[2]; Tris buffer, Day 1, Cold", "result": 0.161},
      {"measurement": "% Difference from day 0 (difference absorbance reading)", "setting": "[2]; Tris buffer, Day 1, RT", "result": "−20.0", "unit": "%"},
      {"measurement": "% Difference from day 0 (initial absorbance reading)", "setting": "[2]; Tris buffer, Day 1, RT", "result": "−7.9", "unit": "%"},
      {"measurement": "Difference absorbance reading, Average", "setting": "[2]; Tris buffer, Day 1, RT", "result": 0.702},
      {"measurement": "initial absorbance reading, Average", "setting": "[2]; Tris buffer, Day 1, RT", "result": 0.231},
      {"measurement": "% Difference from day 0 (difference absorbance reading)", "setting": "[2]; Tris buffer, Day 4, Cold", "result": "−55.7", "unit": "%"},
      {"measurement": "% Difference from day 0 (initial absorbance reading)", "setting": "[2]; Tris buffer, Day 4, Cold", "result": "−18.5", "unit": "%"},
      {"measurement": "Difference absorbance reading, Average", "setting": "[2]; Tris buffer, Day 4, Cold", "result": 0.322},
      {"measurement": "initial absorbance reading (individual readings)", "setting": "[2]; Tris buffer, Day 4, Cold", "result": "0.087 and 0.089 and 0.088"},
      {"measurement": "initial absorbance reading, Average", "setting": "[2]; Tris buffer, Day 4, Cold", "result": 0.088},
      {"measurement": "Difference absorbance reading (individual readings)", "setting": "[2]; Tris buffer, Day 4, Cold, 5 minute minus initial reading", "result": "0.330 and 0.318 and 0.319"},
      {"measurement": "% Difference from day 0 (difference absorbance reading)", "setting": "[2]; Tris buffer, Day 4, RT", "result": "−34.7", "unit": "%"},
      {"measurement": "% Difference from day 0 (initial absorbance reading)", "setting": "[2]; Tris buffer, Day 4, RT", "result": "−14.8", "unit": "%"},
      {"measurement": "Difference absorbance reading, Average", "setting": "[2]; Tris buffer, Day 4, RT", "result": 0.555},
      {"measurement": "initial absorbance reading (individual readings)", "setting": "[2]; Tris buffer, Day 4, RT", "result": "0.162 and 0.164 and 0.158"},
      {"measurement": "initial absorbance reading, Average", "setting": "[2]; Tris buffer, Day 4, RT", "result": 0.161},
      {"measurement": "Difference absorbance reading (individual readings)", "setting": "[2]; Tris buffer, Day 4, RT, 5 minute minus initial reading", "result": "0.543 and 0.577 and 0.544"}
    ]},
    {"molecule": "Guinea Green", "values": [
      {"measurement": "stability versus pH (Comments column of Table 4)", "setting": "[1]", "result": "Not stable in pH above 7.5"}
    ]},
    {"molecule": "CC(=O)SCC[N+](C)(C)C.[I-]", "values": [
      {"measurement": "stability versus pH (Comments column of Table 4)", "setting": "[1]", "result": "ATIC not stable in pH 7.8"},
      {"measurement": "stability in Tris buffer", "setting": "[1]; Tris buffer", "result": "not stable"},
      {"measurement": "light and temperature sensitivity in solution", "setting": "[1]", "result": "light- and temperature-sensitive"},
      {"measurement": "stability in water", "setting": "[1]; water, kept cold and in an amber vial", "result": "stable"}
    ]}
  ]
}
